What was measured:
[1] = water
[2] = Electrochemical testing (Tafel Plot), corrosion current, corrosion potential and pH of simulated acid rain saturated with pigment

Substance | Solubility Description [1] | pH [2]
Zinc Dibasate Diethylamine [Compound 9] | PINS (key: PINS: practically insoluble (<.1 g/100 cc H2 O); SS: slightly soluble (.1 to 1 g/100 cc H2 O); MS: moderately soluble) | –
Zinc Dibasate Dimethylamine [Compound 21] | – | 6.85
Zinc Dibasate Piperidine [Compound 24] | – | 7.1
